## Yeast mating assay 1: variants of the scFv Ab-14

Reference: Engelhart et al. 2022, doi:10.1038/s41597-022-01779-4. File: FLAb, binding data.

Binding partner: SARS-CoV-2 spike HR2 peptide, sequence PDVDLGDISGINAS.

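Library AAYL49 holds single substitutions and randomly drawn double and triple substitutions in the CDRs. AlphaSeq pools MATa yeast showing the antibodies with MATalpha yeast showing the peptide. The frequency of each diploid, read from paired DNA barcodes, reflects how well the two displayed proteins bind. Scores were corrected for input abundance and mapped to Kd with protein pairs of known affinity run in the same pool. Mating was done three times.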

Each scFv is VH, a 15-residue (Gly4Ser)3 linker, VL, as in the parent Ab-14, and differs from it in the CDRs of the heavy chain only.
VH: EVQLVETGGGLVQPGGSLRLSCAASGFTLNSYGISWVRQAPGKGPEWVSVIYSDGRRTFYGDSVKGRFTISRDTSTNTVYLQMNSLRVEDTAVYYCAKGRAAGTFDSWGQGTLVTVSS
VL: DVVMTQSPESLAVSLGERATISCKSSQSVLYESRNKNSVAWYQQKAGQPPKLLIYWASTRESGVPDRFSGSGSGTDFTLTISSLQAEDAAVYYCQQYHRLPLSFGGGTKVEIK

Changes read parent residue, position, new residue, counted from the first residue of the VH shown. Values are log10 of the apparent Kd in nM; lower means stronger binding. A mean of the replicates is given; it leaves out those without a signal. A pair that was not seen in that replicate is written "n.d."; this usually means weak binding, but a binder can also be missed. For reference, the parent read 0.65 as the reference entry and 4.11 (one replicate of three) as a member of this library.

| changes | replicates, log10 nM | mean, log10 nM | empty controls |
|---|---|---|---|
| I51F/K65D/G99P | n.d. n.d. n.d. | n.d. | 0/9 |
| L29P/A102D/G103T | n.d. 2.70 2.06 | 2.38 | 2/9 (4.03) |
| Y32Q/Y52C/A102F | n.d. n.d. n.d. | n.d. | 1/9 (2.82) |
| F27Y/G33K/R57M | n.d. n.d. n.d. | n.d. | 0/9 |
| G26K/T58A/T104K | n.d. n.d. n.d. | n.d. | 1/9 (4.48) |
| I34N/G99D | n.d. n.d. n.d. | n.d. | 4/9 (4.08) |
| T28V/S107V | 1.41 1.71 1.73 | 1.62 | 2/9 (3.77) |
| G26F/L29M/T104A | n.d. n.d. n.d. | n.d. | 0/9 |
| F27P/R57Y | n.d. 4.53 n.d. | 4.53 | 5/9 (4.30) |
| V50P/F59V/R100C | n.d. n.d. n.d. | n.d. | 0/9 |
| V50E/D62H/S63I | n.d. n.d. n.d. | n.d. | 0/9 |
| G33V/R57H/D106V | n.d. n.d. 3.82 | 3.82 | 2/9 (5.12) |
| V64N/R100W/T104E | n.d. n.d. n.d. | n.d. | 1/9 (3.43) |
| I34N/D54F/F59P | n.d. n.d. n.d. | n.d. | 2/9 (4.56) |
| T28K/A101Q/T104Y | 4.09 4.57 4.14 | 4.27 | 6/9 (4.65) |
| S31L/I34L/Y52C | 6.72 4.32 n.d. | 5.52 | 9/9 (4.21) |
| V64I/S107L | n.d. n.d. n.d. | n.d. | 1/9 (3.16) |
| V64N/R100M/S107G | n.d. n.d. n.d. | n.d. | 0/9 |
| T28Y/I34W/D54C | n.d. n.d. n.d. | n.d. | 1/9 (3.52) |
| R100E/D106L | 2.64 2.42 3.14 | 2.73 | 6/9 (4.53) |
| L29R/Y52D/S53R | n.d. n.d. n.d. | n.d. | 1/9 (3.83) |
| I51C/Y52I/F59S | n.d. n.d. n.d. | n.d. | 0/9 |
| G33R/I51N | n.d. n.d. n.d. | n.d. | 0/9 |
| G33V/G61M/A102F | n.d. n.d. n.d. | n.d. | 0/9 |
| L29Q/V64G | n.d. n.d. n.d. | n.d. | 2/9 (4.55) |
| L29F/R56W/A102V | n.d. n.d. n.d. | n.d. | 0/9 |
| G26L/F27E/Y52W | 2.72 3.19 n.d. | 2.95 | 0/9 |
| I51F/S53T/D62F | n.d. n.d. n.d. | n.d. | 0/9 |
| Y32S/D54T/S107I | n.d. n.d. n.d. | n.d. | 0/9 |
| R56I/T58H/S63F | 3.04 2.68 2.57 | 2.76 | 3/9 (3.60) |
| I51S/R56C/A102M | n.d. 5.02 n.d. | 5.02 | 2/9 (3.92) |
| G55L/R57Y/G99F | n.d. n.d. n.d. | n.d. | 0/9 |
| S31N/G33T/G61A | n.d. 2.92 4.75 | 3.84 | 5/9 (4.27) |
| I34T/D62Q/D106W | n.d. n.d. n.d. | n.d. | 1/9 (2.70) |
| S53P/T58D/F105E | n.d. n.d. n.d. | n.d. | 0/9 |
| D62V/S63D/G103V | 1.48 1.57 2.54 | 1.86 | 0/9 |
| L29D/N30P/G55R | 3.94 n.d. n.d. | 3.94 | 3/9 (3.92) |
| N30Y/I34H/G103E | 3.49 n.d. n.d. | 3.49 | 0/9 |
| T58K/F105I | 5.06 4.53 4.57 | 4.72 | 0/9 |
| S63I/K65F | n.d. n.d. n.d. | n.d. | 0/9 |
| S35V/A102P/S107A | n.d. n.d. 3.43 | 3.43 | 2/9 (4.22) |
| L29N/G33K | n.d. 5.20 n.d. | 5.20 | 5/9 (4.18) |
| G33V/K65R/D106L | n.d. n.d. n.d. | n.d. | 0/9 |

Three control strains display no target. For library AAYL49, 15% of the pairings with them gave a signal, with a median of 4.06 and one signal in twenty below 2.83, so weak values seen in few replicates may be background. For each scFv, signals with the empty controls are counted beside the result, with their mean in brackets.